Laboratory results: article PMC2409470 (2004)

B1: anti-Id scFv 40 (scFv, V domains shown)
VH: not shown
VL: SSELTQDPAVSVALGQTVRITCQGDSLRSYYASWYQQKPGQAPVLVIYGKNNRPSGIPDRFSGSSSGNTASLTITGAQAEDEADYYCNSSDPDQLLVVFGGGTKLTVL
B2: anti-Id scFv 69 (scFv, V domains shown)
VH: not shown
VL: SSELTQDPAVSVALGQTVRITCQGDSLRSYYASWYQQKPGQAPVLVIYGKNNRPSGIPDRFSGSSSGNTASLTITGAQAEDEADYYCNSSEPTPPRVVFGGGTKLTVL

How the values were obtained:
[1] = biological target: trastuzumab F(ab′)2 fragments (human); assay: SPR
[2] = biological target: trastuzumab F(ab′)2 fragments (human); assay: SPR; remark: listed apart in the source

Binder | koff [1] [s⁻¹] | Kd [2] [µM]
B1 | 0.00344 | 4.3
B2 | 0.00122 | 
